Measured values as given in patent US9603820B2, “Ornithine aminotransferase inhibition with GABA analogues for treatment of hepatocellular carcinoma” (Northwestern University, priority 2014, dated 2017).

Experiments:
[1] = target: T1, ornithine aminotransferase (OAT) (Homo sapiens, UniProt P04181); assay: Time-dependent inactivation of OAT and dialysis of the inactivated enzyme; type: biochemical
T1 sequence (P04181 36-439 limits assumed): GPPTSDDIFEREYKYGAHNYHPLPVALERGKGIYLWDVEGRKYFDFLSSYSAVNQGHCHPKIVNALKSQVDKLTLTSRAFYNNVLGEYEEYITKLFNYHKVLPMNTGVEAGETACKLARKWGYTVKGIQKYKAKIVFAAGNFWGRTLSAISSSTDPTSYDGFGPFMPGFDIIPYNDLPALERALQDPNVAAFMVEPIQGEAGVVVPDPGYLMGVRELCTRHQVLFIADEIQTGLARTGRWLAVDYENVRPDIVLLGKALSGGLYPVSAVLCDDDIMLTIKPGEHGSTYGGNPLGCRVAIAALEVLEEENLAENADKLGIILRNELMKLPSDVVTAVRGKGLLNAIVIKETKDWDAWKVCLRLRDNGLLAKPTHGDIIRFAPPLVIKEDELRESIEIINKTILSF
Description: OAT activity assays were carried out using as follows. OAT (0.25 μg) is incubated with various concentrations of gabaculine (0.1 μM, 1 μM, 5 μM, 10 μM) or CPP-115 (10 μM, 25 μM, 50 μM, 100 μM, 200 μM) in 100 mM potassium pyrophosphate buffer, pH 8.0, containing 1 mM alpha-ketoglutarate in a total volume of 20 μL at room temperature. At time intervals, 80 μL of assay solution containing PYCR1 (0.5 μg), 12.5 mM alpha-ketoglutarate, 1 mM NADH, 0.03 mM PLP, and 25 mM L-ornithine in 100 mM potassium pyrophosphate buffer, pH 8.0, are added to the incubation mixture and assayed for OAT activity.
OAT (30 μg) is pre-incubated for 24 h with 2 mM CPP-115 in 100 mM pyrophosphate buffer (pH 8.0) containing 5 mM alpha-ketoglutarate in a total volume of 60 μL at room temperature. OAT incubated without the inactivator serves as a control. […]
For the determination of KI and kinact values, the natural logarithm of the percentage of remaining OAT activity is plotted against the pre-incubation time at each inhibitor concentration to obtain the kobs (slope) value for each concentration. […] The initial rate constants for the inactivation at various concentrations of the two compounds are determined using nonlinear regression analysis.

OAT = target: T2, OAT (Homo sapiens, UniProt P04181); conditions: prior art, FIG. 1; cited from earlier work
T2 sequence (P04181 36-439 limits assumed): T1 sequence (P04181 36-439 limits assumed)

Gabaculine
OAT inactivation, time and concentration dependence [1]: time- and concentration-dependent
efficiency/potency as time-dependent irreversible inhibitor (inactivator) of OAT ([1]; no activity returned upon dialysis for 48 h): most potent inactivator
inactivation/inhibition of OAT (known compounds) (OAT): also inactivate OAT with equal potency
